{"source": "PubChem BioAssay (NCI)", "experiment_in_all_cases": "NCI tumour cell line growth inhibition, 48 h", "key": {"BT-549 breast": {"test_system": "BT-549 breast"}, "CCRF-CEM leukemia": {"test_system": "CCRF-CEM leukemia"}, "DLD-1 colon": {"test_system": "DLD-1 colon"}, "DMS 114 small cell lung": {"test_system": "DMS 114 small cell lung"}, "DMS 273 small cell lung": {"test_system": "DMS 273 small cell lung"}, "HCT-116 colon": {"test_system": "HCT-116 colon"}, "HCT-15 colon": {"test_system": "HCT-15 colon"}, "HL-60(TB) leukemia": {"test_system": "HL-60(TB) leukemia"}, "HS 578T breast": {"test_system": "HS 578T breast"}, "K-562 leukemia": {"test_system": "K-562 leukemia"}, "KM12 colon": {"test_system": "KM12 colon"}, "KM20L2 colon": {"test_system": "KM20L2 colon"}, "LOX IMVI melanoma": {"test_system": "LOX IMVI melanoma"}, "LXFL 529 NSCLC": {"test_system": "LXFL 529 NSCLC"}, "M19-MEL melanoma": {"test_system": "M19-MEL melanoma"}, "MALME-3M melanoma": {"test_system": "MALME-3M melanoma"}, "MCF7 breast": {"test_system": "MCF7 breast"}, "NCI-H460 lung": {"test_system": "NCI-H460 lung"}, "NCI-H522 lung": {"test_system": "NCI-H522 lung"}, "NCI/ADR-RES ovarian": {"test_system": "NCI/ADR-RES ovarian"}, "OVCAR-3 ovarian": {"test_system": "OVCAR-3 ovarian"}, "P388 leukemia": {"test_system": "P388 leukemia"}, "RPMI-8226 leukemia": {"test_system": "RPMI-8226 leukemia"}, "SN12K1 renal": {"test_system": "SN12K1 renal"}, "SNB-75 CNS": {"test_system": "SNB-75 CNS"}, "SNB-78 CNS": {"test_system": "SNB-78 CNS"}, "SR leukemia": {"test_system": "SR leukemia"}, "SW-620 colon": {"test_system": "SW-620 colon"}, "T-47D breast": {"test_system": "T-47D breast"}, "UACC-62 melanoma": {"test_system": "UACC-62 melanoma"}}, "note": "“And” between values parts separate entries of the source, which are not always exact repeats. Equal values may be shown once.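 These data come from cells grown in 96-well plates and exposed to compound for 48 hours at five concentrations. GI50 marks 50% less growth. Definition used: TGI = concentration required for complete inhibition of growth.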"}
{"compound": "CC1=C[C@H]2O[C@@H]3C[C@H]4OC(=O)/C=C\\C=C\\C(C(C)O)OCC(O)C(C)CC(=O)OC[C@@]2(C[C@@H]1O)[C@]4(C)[C@@]31CO1", "note": "(stereo partly drawn)", "values": [{"measurement": "TGI", "setting": "BT-549 breast", "result": 7.66, "unit": "nM"}, {"measurement": "GI50", "setting": "CCRF-CEM leukemia", "result": "< 1", "unit": "nM"}, {"measurement": "TGI", "setting": "CCRF-CEM leukemia", "result": 2.75, "unit": "nM"}, {"measurement": "GI50", "setting": "DLD-1 colon", "result": 3.86, "unit": "nM"}, {"measurement": "GI50", "setting": "DMS 114 small cell lung", "result": 1.88, "unit": "nM"}, {"measurement": "TGI", "setting": "DMS 114 small cell lung", "result": 3.31, "unit": "nM"}, {"measurement": "GI50", "setting": "DMS 273 small cell lung", "result": "< 1", "unit": "nM"}, {"measurement": "TGI", "setting": "HCT-116 colon", "result": 13.8, "unit": "nM"}, {"measurement": "TGI", "setting": "HCT-15 colon", "result": "42.5 nM and 311 nM"}, {"measurement": "TGI", "setting": "HL-60(TB) leukemia", "result": 3.01, "unit": "nM"}, {"measurement": "TGI", "setting": "HS 578T breast", "result": 3.42, "unit": "nM"}, {"measurement": "GI50", "setting": "K-562 leukemia", "result": 2.48, "unit": "nM"}, {"measurement": "TGI", "setting": "KM12 colon", "result": 40.5, "unit": "nM"}, {"measurement": "GI50", "setting": "KM20L2 colon", "result": "20.7 nM and 40.9 nM"}, {"measurement": "TGI", "setting": "KM20L2 colon", "result": "54.9 nM and 158 nM"}, {"measurement": "TGI", "setting": "LOX IMVI melanoma", "result": "4.56 nM and 30 nM"}, {"measurement": "GI50", "setting": "LXFL 529 NSCLC", "result": 1.86, "unit": "nM"}, {"measurement": "TGI", "setting": "LXFL 529 NSCLC", "result": 3.84, "unit": "nM"}, {"measurement": "GI50", "setting": "M19-MEL melanoma", "result": 3.41, "unit": "nM"}, {"measurement": "TGI", "setting": "M19-MEL melanoma", "result": "5.01 nM and 41.1 nM"}, {"measurement": "TGI", "setting": "MALME-3M melanoma", "result": "4.65 nM and 30 nM"}, {"measurement": "TGI", "setting": "MCF7 breast", "result": "> 300000", "unit": "nM"}, {"measurement": "TGI", "setting": "NCI-H460 lung", "result": "24.6 nM and 37.8 nM"}, {"measurement": "TGI", "setting": "NCI-H522 lung", "result": "3.02 nM and 30 nM"}, {"measurement": "GI50", "setting": "NCI/ADR-RES ovarian", "result": 1010, "unit": "nM"}, {"measurement": "TGI", "setting": "NCI/ADR-RES ovarian", "result": 16200, "unit": "nM"}, {"measurement": "TGI", "setting": "OVCAR-3 ovarian", "result": "9.44 nM and 93.3 nM"}, {"measurement": "TGI", "setting": "P388 leukemia", "result": "> 300000", "unit": "nM"}, {"measurement": "TGI", "setting": "RPMI-8226 leukemia", "result": 8.91, "unit": "nM"}, {"measurement": "TGI", "setting": "SN12K1 renal", "result": 41.5, "unit": "nM"}, {"measurement": "TGI", "setting": "SNB-75 CNS", "result": "18.1 nM and 85.8 nM"}, {"measurement": "GI50", "setting": "SNB-78 CNS", "result": "4.72 nM and 44.8 nM"}, {"measurement": "TGI", "setting": "SNB-78 CNS", "result": "18.1 nM and 120 nM"}, {"measurement": "GI50", "setting": "SR leukemia", "result": 3.04, "unit": "nM"}, {"measurement": "TGI", "setting": "SR leukemia", "result": 12.5, "unit": "nM"}, {"measurement": "TGI", "setting": "SW-620 colon", "result": "26.5 nM and 213 nM"}, {"measurement": "TGI", "setting": "T-47D breast", "result": 7.28, "unit": "nM"}, {"measurement": "TGI", "setting": "UACC-62 melanoma", "result": "9.09 nM and 89.6 nM"}]}
